# Measured values published in patent US20030036531A1, “Use of lysophospholipids to inhibit mammalian phospholipase D” (Wisconsin Alumni Research Foundation, priority 2001, published 2003).
# Molecular target: T1, partially purified PLD from rat brain membrane (Rattus norvegicus, UniProt P70496)
# T1 construct: The activity of partially purified PLD from rat brain membrane was assayed; tissue Dr. Sue Goo Rhee (National Institutes of Health, Bethesda, Md.); host or cells: rat brain membranes
# T1 sequence (P70496 1-1074): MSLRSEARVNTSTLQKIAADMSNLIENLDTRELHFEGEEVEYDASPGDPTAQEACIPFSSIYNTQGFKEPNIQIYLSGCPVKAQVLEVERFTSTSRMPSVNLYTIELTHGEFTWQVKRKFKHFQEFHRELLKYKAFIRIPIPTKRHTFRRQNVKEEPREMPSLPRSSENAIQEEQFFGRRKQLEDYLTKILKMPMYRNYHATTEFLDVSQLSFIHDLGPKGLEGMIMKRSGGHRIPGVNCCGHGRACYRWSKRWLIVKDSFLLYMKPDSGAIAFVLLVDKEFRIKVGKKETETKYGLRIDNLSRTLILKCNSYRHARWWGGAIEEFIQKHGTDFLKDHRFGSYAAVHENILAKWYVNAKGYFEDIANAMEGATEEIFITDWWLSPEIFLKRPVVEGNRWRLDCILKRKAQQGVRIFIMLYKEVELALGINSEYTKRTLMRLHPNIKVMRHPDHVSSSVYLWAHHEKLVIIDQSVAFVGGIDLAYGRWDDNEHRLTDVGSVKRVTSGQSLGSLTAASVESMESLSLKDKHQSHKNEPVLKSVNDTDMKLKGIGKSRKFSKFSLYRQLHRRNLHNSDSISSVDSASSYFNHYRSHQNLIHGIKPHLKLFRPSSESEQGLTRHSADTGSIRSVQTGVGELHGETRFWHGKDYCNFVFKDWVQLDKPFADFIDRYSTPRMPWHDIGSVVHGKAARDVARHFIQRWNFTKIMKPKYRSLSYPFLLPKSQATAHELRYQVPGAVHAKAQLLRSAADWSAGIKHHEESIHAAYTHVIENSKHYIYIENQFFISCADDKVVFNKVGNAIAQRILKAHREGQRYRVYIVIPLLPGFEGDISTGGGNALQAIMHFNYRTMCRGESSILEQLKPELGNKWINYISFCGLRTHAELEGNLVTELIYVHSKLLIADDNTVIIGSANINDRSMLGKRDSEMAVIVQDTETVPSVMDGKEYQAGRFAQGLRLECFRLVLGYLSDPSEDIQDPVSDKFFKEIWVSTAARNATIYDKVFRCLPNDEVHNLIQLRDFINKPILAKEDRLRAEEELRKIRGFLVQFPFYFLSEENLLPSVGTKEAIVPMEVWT
# Experiment: Measurement of PLD activity (partially purified rat brain PLD, 14C-PC substrate, TLC)
# Assay type: biochemical
# Settings: 10 μM
compound,measurement,value
"OCC(O)CO [glycerol, reference compound]",inhibition of PLD activity by headgroups,"None of the headgroups such as choline, glycerol, inositol, or serine significantly inhibited PLD activity"
